Results: ChEMBL document CHEMBL6109068, “Design, synthesis, and biological evaluation of 5'-deoxy (N)-methanocarbanucleoside derivatives as A3 adenosine receptor ligands” (Bioorg Med Chem Lett, 2025)

Protein sequences, listed by entry. Tags and fused reporters are not part of them.
UniProt P0DMS8, whole entry: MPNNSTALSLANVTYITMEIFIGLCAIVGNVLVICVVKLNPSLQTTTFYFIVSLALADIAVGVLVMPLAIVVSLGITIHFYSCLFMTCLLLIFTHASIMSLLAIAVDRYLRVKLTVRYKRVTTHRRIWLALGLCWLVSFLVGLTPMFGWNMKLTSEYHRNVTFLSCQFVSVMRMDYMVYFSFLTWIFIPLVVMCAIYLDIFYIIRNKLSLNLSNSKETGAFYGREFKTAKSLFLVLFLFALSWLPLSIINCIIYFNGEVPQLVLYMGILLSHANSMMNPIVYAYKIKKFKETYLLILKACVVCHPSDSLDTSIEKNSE

Molecular target: Adenosine receptor A3 (Homo sapiens, UniProt P0DMS8)
Experiment: Displacement of [3H]-NECA from human A3AR stably expressed in HeLa cell membrane at 10 uM relative to control
Format: cell membranes

| inhibition | SMILES |
| --- | --- |
| 80% | C[C@]12C[C@@H]1[C@@H](n1cnc3c(NCc4cccc(F)c4)ncnc31)[C@H](O)[C@@H]2O |
| 89% | C[C@]12C[C@@H]1[C@@H](n1cnc3c(N)ncnc31)[C@H](O)[C@@H]2O |
